Test system: serum TNF
Conditions: I-BET 1 hour before LPS; samples 2 hours after LPS

Question: With `CCNC(=O)C[C@@H]1N=C(c2ccc(Cl)cc2)c2cc(OC)ccc2-n2c(C)nnc21` [I-BET] as the compound, how does the “serum TNF levels” value read?
Answer: The value was “unaltered”.

From publication PMC5415086 (Nature, 2010)
